# Biological target: SNARE^Q/Cpx^48-73 subcomplex (rat) (UniProt P63045)
# By UniProt entry, the sequences of proteins in these tests, tags left out. Where a name states a change or a piece, a line headed by the entry shows the natural chain unless it says otherwise.
# UniProt P63045: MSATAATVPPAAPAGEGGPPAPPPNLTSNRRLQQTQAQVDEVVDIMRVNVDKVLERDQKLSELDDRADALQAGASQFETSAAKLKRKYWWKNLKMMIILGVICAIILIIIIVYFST
# UniProt P21707: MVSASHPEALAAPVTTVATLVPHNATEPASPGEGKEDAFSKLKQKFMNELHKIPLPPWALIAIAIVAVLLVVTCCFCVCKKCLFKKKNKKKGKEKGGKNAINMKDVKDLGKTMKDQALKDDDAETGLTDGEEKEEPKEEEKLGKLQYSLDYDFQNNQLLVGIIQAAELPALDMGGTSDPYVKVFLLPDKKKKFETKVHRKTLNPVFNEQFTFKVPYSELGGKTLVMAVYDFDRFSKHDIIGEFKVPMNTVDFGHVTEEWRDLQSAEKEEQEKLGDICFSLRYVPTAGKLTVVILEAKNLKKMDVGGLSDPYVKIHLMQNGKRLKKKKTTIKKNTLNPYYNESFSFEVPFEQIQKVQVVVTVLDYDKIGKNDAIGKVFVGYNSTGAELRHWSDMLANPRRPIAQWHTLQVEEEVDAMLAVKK
# Experiment: ITC
substance,measurement,value
Syt1 C2B^KA-Q mutant (K326A/K327A with R281A/E295A/Y338W/R398A/R399A) (from UniProt P21707 271-421) (domain or fragment),Kd,16 µM
